For this experiment, the system named is SERT. The settings on record: ratio of Ki values taken from references 31 and 32.

SMILES strings stand for the structures.

As for `Fc1ccc([C@@H]2CCNC[C@H]2COc2ccc3c(c2)OCO3)cc1` [Paroxetine], the DAT/SERT worked out at 2000.

The record behind these values is article PMC3713777 (Bioorganic & medicinal chemistry, 2010).
